Reference: ChEMBL document CHEMBL1126106, “O3-(2-carbomethoxyallyl) ethers of opioid ligands derived from oxymorphone, naltrexone, etorphine, diprenorphine, norbinaltorphimine, and naltrindole. Unexpected O3-dealkylation in the opioid radioligand displacement assay” (1992)

Amino acid sequences for entries named in this document (tags omitted).
UniProt P41145, whole entry: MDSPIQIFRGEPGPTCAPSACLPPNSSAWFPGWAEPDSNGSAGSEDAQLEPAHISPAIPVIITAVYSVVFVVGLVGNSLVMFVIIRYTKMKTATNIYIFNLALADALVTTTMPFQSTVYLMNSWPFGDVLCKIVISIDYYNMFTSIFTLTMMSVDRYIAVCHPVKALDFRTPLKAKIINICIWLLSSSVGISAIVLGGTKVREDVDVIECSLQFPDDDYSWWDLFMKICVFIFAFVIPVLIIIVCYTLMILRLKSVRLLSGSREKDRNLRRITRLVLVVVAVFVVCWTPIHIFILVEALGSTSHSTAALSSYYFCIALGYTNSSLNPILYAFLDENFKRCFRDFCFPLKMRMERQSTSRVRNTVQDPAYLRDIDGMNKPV
UniProt P41143, whole entry: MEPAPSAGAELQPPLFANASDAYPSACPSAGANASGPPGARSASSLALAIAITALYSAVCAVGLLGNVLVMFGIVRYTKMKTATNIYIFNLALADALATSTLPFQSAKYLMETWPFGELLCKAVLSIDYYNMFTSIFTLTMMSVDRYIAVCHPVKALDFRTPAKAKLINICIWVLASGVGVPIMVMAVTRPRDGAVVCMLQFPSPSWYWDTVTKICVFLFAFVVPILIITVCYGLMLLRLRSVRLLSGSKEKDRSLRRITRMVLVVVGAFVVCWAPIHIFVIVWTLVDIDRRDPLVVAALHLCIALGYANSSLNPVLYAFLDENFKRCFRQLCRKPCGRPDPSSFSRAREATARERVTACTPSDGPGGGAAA
UniProt P35372, whole entry: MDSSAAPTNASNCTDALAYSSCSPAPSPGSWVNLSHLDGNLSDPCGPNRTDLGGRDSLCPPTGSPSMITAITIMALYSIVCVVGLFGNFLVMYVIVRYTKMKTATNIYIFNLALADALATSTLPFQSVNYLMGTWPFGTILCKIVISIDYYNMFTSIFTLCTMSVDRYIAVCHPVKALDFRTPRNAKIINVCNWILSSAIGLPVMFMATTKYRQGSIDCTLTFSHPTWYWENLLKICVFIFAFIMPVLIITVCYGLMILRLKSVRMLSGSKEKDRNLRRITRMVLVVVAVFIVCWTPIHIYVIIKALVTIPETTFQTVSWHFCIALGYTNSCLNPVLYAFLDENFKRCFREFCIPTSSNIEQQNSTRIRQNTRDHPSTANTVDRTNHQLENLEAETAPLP
UniProt P41144, whole entry: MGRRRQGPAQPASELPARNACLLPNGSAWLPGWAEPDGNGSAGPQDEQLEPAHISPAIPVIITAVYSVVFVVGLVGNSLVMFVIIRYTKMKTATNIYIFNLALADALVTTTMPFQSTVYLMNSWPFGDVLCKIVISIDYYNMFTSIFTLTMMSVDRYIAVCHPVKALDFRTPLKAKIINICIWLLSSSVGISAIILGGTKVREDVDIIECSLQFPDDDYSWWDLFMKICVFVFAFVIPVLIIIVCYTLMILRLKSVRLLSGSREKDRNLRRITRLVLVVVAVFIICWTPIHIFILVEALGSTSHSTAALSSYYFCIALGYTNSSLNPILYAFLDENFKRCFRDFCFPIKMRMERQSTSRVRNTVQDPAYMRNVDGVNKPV
UniProt P97266, whole entry: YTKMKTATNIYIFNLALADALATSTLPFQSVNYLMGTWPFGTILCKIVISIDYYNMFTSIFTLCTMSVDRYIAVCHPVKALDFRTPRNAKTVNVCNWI

What was measured:
[1] = molecular target: Opioid receptors; mu/kappa/delta (Homo sapiens, UniProt P41145+P41143+P35372); assay: Inhibition of total opioid receptor by displacing 0.5 nM [3H]bremazocine in guinea pig brain membrane
[2] = molecular target: Kappa-type opioid receptor (Cavia porcellus, UniProt P41144); assay: Inhibition of opioid receptor kappa by displacing 0.5 nM [3H]bremazocine in guinea pig brain membrane
Mu-type opioid receptor = Mu-type opioid receptor (Cavia porcellus, UniProt P97266); assay: Inhibition of opioid receptor mu by displacing 1 nM [3H]DAGO in guinea pig brain membrane

With `C=C(COc1ccc2c3c1O[C@H]1[C@@]4(OC)CC[C@@]5(C[C@@H]4C(C)(C)O)[C@@H](C2)N(CC2CC2)CC[C@]315)C(=O)OC` [listing 1 of 2 here] the IC50 [1] was 2.2 nM.

With `C=C(COc1ccc2c3c1O[C@H]1[C@@]4(OC)CC[C@@]5(C[C@@H]4C(C)(C)O)[C@@H](C2)N(CC2CC2)CC[C@]315)C(=O)OC` [listing 2 of 2 here] the IC50 [2] was 3.6 nM and the IC50 (Mu-type opioid receptor) was 1 nM.
